Earlier results as cited in US9241935B2.

Details: oral administration

Compound: CCC(=O)N(c1ccccc1)C1CCN(CCc2ccccc2)CC1
- Fraction of orally administered fentanyl not absorbed (first pass effect): ≥ 50%

This is a selection: effects in other tests are not listed, and their absence says nothing.
